Measured values taken from PubChem BioAssay AID2102 (Southern Research Specialized Biocontainment Screening …, 2009).
This is a selection; strong and weak results do not stand in their true shares. Potency and affinity values are given separately. Activity calls are given as the source filed them. How the calls were made is not given here.

Test: cell viability loss from selected hits – cytotoxicity control for SV40 T antigen inhibitor project, dose response (AID 2102);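 further: cells exposed to compounds for 72 hours; 100% = mean of untreated cell control wells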
Settings: Host cell viability cytotoxicity counter-screen; at 50 µM (top of the series)

Row | Structure (SMILES) | viability
1 | COc1ccc(NC2CCN(C(=O)OC(C)(C)C)CC2)cc1 | inactive: 85.4%
2 | CCOC(=O)N1CCC(Nc2ccc(OC)cc2)CC1 | inactive: 108%
